Earlier results as cited in US20250090529A1, “USE OF SHP2 INHIBITORS FOR THE TREATMENT OF INSULIN RESISTANCE” (INSERM (INSTITUT NATIONAL DE LA SANTÉ ET DE LA RECHERCHE …, priority 2018, published 2025).

Target: SHP2 (Homo sapiens, UniProt Q06124)
Details: Garcia Fortanet et al., J Med Chem 2016; cited from earlier work

CC1(N)CCN(c2cnc(-c3cccc(Cl)c3Cl)c(N)n2)CC1 [SHP099, 6-(4-amino-4-methylpiperidin-1-yl)-3-(2,3-dichlorophenyl)pyrazin-2-amine]
specificity: highly specific
